Results as given in ChEMBL document CHEMBL1144993, “Imidazoline binding sites (IBS) profile modulation: key role of the bridge in determining I1-IBS or I2-IBS selectivity within a series of 2-phenoxymethylimidazoline analogues” (J Med Chem, 2003).

Amino acid sequences for entries named in this document (tags omitted). A change or cut given only in a name is not applied to a line headed by its entry.
UniProt Q9Y2I1: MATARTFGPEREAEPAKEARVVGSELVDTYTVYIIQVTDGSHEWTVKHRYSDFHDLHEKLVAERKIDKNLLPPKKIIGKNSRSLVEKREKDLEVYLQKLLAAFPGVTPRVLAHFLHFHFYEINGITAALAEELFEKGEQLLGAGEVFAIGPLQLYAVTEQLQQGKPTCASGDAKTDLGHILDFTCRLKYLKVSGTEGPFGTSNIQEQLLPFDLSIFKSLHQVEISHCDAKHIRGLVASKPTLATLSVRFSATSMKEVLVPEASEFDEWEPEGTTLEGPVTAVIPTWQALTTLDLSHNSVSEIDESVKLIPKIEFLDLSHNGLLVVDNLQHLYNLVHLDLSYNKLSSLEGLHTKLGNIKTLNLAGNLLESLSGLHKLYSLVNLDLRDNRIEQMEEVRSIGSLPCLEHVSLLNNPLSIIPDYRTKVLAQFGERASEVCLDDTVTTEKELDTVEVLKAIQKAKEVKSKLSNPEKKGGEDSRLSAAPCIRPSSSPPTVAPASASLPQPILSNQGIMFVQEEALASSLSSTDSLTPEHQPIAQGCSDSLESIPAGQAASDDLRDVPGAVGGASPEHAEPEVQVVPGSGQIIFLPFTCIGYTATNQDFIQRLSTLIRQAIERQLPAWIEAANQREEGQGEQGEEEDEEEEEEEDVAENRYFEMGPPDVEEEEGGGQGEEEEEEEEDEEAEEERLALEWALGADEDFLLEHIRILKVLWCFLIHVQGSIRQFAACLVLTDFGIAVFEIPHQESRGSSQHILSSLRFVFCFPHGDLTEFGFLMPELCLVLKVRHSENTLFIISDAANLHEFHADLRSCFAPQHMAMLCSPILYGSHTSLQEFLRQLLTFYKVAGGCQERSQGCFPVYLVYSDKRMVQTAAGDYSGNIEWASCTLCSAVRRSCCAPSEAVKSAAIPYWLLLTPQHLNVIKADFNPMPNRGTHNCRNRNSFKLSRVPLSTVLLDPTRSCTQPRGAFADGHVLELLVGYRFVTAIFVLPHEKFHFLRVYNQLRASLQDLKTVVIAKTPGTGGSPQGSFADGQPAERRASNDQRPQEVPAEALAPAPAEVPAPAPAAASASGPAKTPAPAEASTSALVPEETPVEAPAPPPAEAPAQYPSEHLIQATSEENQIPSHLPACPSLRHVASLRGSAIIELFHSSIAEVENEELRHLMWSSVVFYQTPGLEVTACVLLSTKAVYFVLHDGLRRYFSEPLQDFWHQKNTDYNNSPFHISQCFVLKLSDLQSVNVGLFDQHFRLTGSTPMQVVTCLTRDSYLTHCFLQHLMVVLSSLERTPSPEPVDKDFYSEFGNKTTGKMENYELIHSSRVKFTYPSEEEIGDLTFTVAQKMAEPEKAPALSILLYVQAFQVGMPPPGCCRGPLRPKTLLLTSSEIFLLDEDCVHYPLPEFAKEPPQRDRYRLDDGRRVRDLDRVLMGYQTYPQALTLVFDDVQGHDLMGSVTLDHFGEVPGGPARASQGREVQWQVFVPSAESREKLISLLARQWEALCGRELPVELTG

Columns and labels:
Nischarin (Homo sapiens) [1] = target: Nischarin (Homo sapiens) (UniProt Q9Y2I1); test: Eudismic ratio of (R)-(-)-8 to (S)-(+)-8 for I1-Imidazoline binding site
Nischarin (Homo sapiens) [2] = target: Nischarin (Homo sapiens) (UniProt Q9Y2I1); test: Eudismic ratio of (1S,2S)-(+)-6 to (1R,2R)-(-)-6 for I1-Imidazoline binding site

## C[C@H](CC1=NCCN1)c1ccccc1
Nischarin (Homo sapiens) [1]
  Ratio: 12

## c1ccc([C@H]2C[C@@H]2C2=NCCN2)cc1
Nischarin (Homo sapiens) [2]
  Ratio: 29
